From publication PMC10223265 (Viruses, 2023)

Experiments:
[1] = biological target: T1, N36 (gp41 NHR-derived peptide) (Human immunodeficiency virus type 1 group M subtype B, UniProt P04578); test: Native PAGE (N-PAGE) binding to N36; set-up: species or system HIV-1; conditions: equimolar mixtures, 100 μM each peptide
T1 construct: a synthetic peptide derived from the NHR segment of HIV-1 gp41, namely, N36

[2] = system: HIV-1 91US_4 (subtype B, R5); assay type: cell-based; conditions: 91US 4 (subtype B, R5)
[3] = system: HIV-1 J32228M4 (subtype D, R5); assay type: cell-based
[4] = system: HIV-1 strain 89BZ167 (subtype B, X4); assay type: cell-based; conditions: primary isolate 89BZ167, subtype B, CEMx174 5.25 M7 cells
[5] = system: HIV-1 92UG029 (subtype A, X4); assay type: cell-based
[6] = biological target: T1, N36 (gp41 NHR-derived peptide); test: CD spectroscopy and thermal denaturation of equimolar mixtures with N36; assay type: binding, HIV-1; conditions: 10 μM each peptide, in the presence of 2 M Gdn·HCl

Structure (SMILES)	binding to N36 by N-PAGE [1]	EC50 [2] [nM]	EC50 [3] [nM]	EC50 [4] [nM]	EC50 [5] [nM]	thermal unfolding transition (Tm) of complex with N36 [6] [°C]
CC[C@H](C)[C@H](NC(=O)[C@H](CO)NC(=O)[C@H](CCC(=O)O)NC(=O)[C@H](CCC(=O)O)NC(=O)[C@H](CCC(N)=O)NC(=O)[C@H](CCCCN)NC(=O)[C@H](CCCCN)NC(=O)[C@@H](NC(=O)[C@H](CCC(N)=O)NC(=O)[C@H](CCC(=O)O)NC(=O)[C@H](CCC(=O)O)NC(=O)[C@@H](NC(=O)[C@H](CCCCN)NC(=O)[C@H](CCCCN)NC(=O)[C@@H](NC(=O)[C@H](CC(C)C)NC(=O)[C@H](CCC(=O)O)NC(=O)[C@H](CCC(=O)O)NC(=O)[C@H](CO)NC(=O)[C@H](CCCCN)NC(=O)[C@H](CCCCN)NC(=O)[C@@H](NC(=O)[C@H](CC(C)C)NC(=O)[C@H](CCC(=O)O)NC(=O)[C@H](CCC(=O)O)NC(=O)[C@@H](NC(=O)[C@H](CCCCN)NC(=O)[C@H](CCCCN)NC(=O)[C@H](CC(=O)O)NC(=O)[C@H](Cc1c[nH]c2ccccc12)NC(=O)[C@H](CCC(=O)O)NC(=O)[C@H](CCC(=O)O)NC(=O)[C@H](Cc1c[nH]c2ccccc12)NC(=O)[C@@H](NC(=O)[C@H](CCSC)NC(C)=O)[C@@H](C)O)[C@@H](C)CC)[C@@H](C)CC)[C@@H](C)CC)[C@@H](C)CC)[C@@H](C)CC)C(=O)N[C@@H](CCCCN)C(=O)N[C@@H](CCCCN)C(=O)N[C@@H](CCCCNC(=O)CCOCCOCCOCCOCCNC(=O)c1ccc(CC2CCN(CCCN(C(=O)C3CCN(C(C)=O)CC3)c3ccc(C)c(Cl)c3)CC2)cc1)C(N)=O [AP3P4E]	bound to N36					
CC[C@H](C)[C@H](NC(=O)[C@H](CO)NC(=O)[C@H](CCC(=O)O)NC(=O)[C@H](CCC(=O)O)NC(=O)[C@H](CCC(N)=O)NC(=O)[C@H](CCCCN)NC(=O)[C@H](CCCCN)NC(=O)[C@@H](NC(=O)[C@H](CCC(N)=O)NC(=O)[C@H](CCC(=O)O)NC(=O)[C@H](CCC(=O)O)NC(=O)[C@@H](NC(=O)[C@H](CCCCN)NC(=O)[C@H](CCCCN)NC(=O)[C@@H](NC(=O)[C@H](CC(C)C)NC(=O)[C@H](CCC(=O)O)NC(=O)[C@H](CCC(=O)O)NC(=O)[C@H](CO)NC(=O)[C@H](CCCCN)NC(=O)[C@H](CCCCN)NC(=O)[C@@H](NC(=O)[C@H](CC(C)C)NC(=O)[C@H](CCC(=O)O)NC(=O)[C@H](CCC(=O)O)NC(=O)[C@@H](NC(=O)[C@H](CCCCN)NC(=O)[C@H](CCCCN)NC(=O)[C@H](CC(=O)O)NC(=O)[C@H](Cc1c[nH]c2ccccc12)NC(=O)[C@H](CCC(=O)O)NC(=O)[C@H](CCC(=O)O)NC(=O)[C@H](Cc1c[nH]c2ccccc12)NC(=O)[C@@H](NC(=O)[C@H](CCSC)NC(C)=O)[C@@H](C)O)[C@@H](C)CC)[C@@H](C)CC)[C@@H](C)CC)[C@@H](C)CC)[C@@H](C)CC)C(=O)N[C@@H](CCCCN)C(=O)N[C@@H](CCCCN)C(N)=O [AP3]	bound to N36	10.7 ± 1.2	59 ± 6.1	11.6 ± 0.5	3.1 ± 0.1	68
